Target: GABA-AT (Sus scrofa, UniProt P80147)
Assay: Reversible inhibition of GABA-AT
Format: biochemical

Chains of the proteins cited; added tags and fusions are not shown. Residues count along the entry.
UniProt P80147, 29-500: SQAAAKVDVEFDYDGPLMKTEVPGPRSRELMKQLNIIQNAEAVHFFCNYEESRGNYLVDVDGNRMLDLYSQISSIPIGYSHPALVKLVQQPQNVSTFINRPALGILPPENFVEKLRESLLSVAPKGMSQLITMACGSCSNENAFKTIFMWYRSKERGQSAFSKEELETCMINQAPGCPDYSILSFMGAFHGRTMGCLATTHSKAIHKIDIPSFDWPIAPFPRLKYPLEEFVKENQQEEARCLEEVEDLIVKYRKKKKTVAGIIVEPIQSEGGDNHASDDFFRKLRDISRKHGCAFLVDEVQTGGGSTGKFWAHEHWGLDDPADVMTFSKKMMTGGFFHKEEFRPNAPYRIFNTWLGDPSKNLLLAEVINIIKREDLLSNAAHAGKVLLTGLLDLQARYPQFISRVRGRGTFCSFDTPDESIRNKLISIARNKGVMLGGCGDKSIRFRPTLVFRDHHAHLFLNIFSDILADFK

## N[C@H]1C=C(C(=O)O)CC1(F)F [Compound 6, (S)-3-amino-4,4-difluorocyclopent-1-enecarboxylic acid]
Ki relative to cyclopentane 4
  inhibitory activity toward GABA-AT weaker than that of 4: about 10 times
Ki, GABA-AT reversible inhibition, Ki = IC50/(1+[S]/Km)
  Ki: 1100 ± 100 µM

From paper PMC8367020 (Journal of the American Chemical Society, 2021)
